Columns and labels:
MCF10A cells = assay: MTT cell viability assay, MCF10A; assay type: cell-based; conditions: 8 days
[1] = tested on: Akt, MAPK, GSK3-β, snail, slug, KLF4 in SK-BR-3 cells; assay: Western blot of erbB downstream signaling and Snail/Slug, SK-BR-3; assay type: cell-based, human
U87 cells = assay: MTT cell viability assay, U87; assay type: cell-based; conditions: 8 days, IFN-γ dose-response
MDA-MB-231 cells = assay: MTT cell viability assay, MDA-MB-231; assay type: cell-based; conditions: FIG. 43 / FIG. 55C

| Substance | cell viability (MCF10A cells) | slug protein level ([1]; Western blot) | snail protein level ([1]; Western blot) | cell viability (cytotoxicity) (SK-BR-3 cells) | cell viability (U87 cells) | cell viability (MDA-MB-231 cells) | Akt pathway activity ([1]; 24 hours (FIG. 20A, 20B)) |
| --- | --- | --- | --- | --- | --- | --- | --- |
| IFN-β: recombinant human Interferon-beta | even low doses of IFN-β were cytotoxic to these cells | not slug | dramatically reduce snail | cytotoxic to tumor cells even at small doses | – | – | – |
| C225: anti-EGFR mAb, also known as cetuximab | – | – | but not C225 | – | failed to respond | responded minimally | but not C225 |

— patent publication US11446516B2, “Methods of increasing response to cancer radiation therapy” (THE TRUSTEES OF THE UNIVERSITY OF PENNSYLVANIA, priority 2013, dated 2022)
